These are literature values, as cited in patent publication US20020146823A1, “Method for promoting hematopoietic and mesenchymal cell proliferation and differentiation” (The University of Southern California, priority 1997, published 2002).

For the series, the target named is T1, AT2 receptor (Homo sapiens, UniProt P50052).
T1 sequence (P50052 1-363): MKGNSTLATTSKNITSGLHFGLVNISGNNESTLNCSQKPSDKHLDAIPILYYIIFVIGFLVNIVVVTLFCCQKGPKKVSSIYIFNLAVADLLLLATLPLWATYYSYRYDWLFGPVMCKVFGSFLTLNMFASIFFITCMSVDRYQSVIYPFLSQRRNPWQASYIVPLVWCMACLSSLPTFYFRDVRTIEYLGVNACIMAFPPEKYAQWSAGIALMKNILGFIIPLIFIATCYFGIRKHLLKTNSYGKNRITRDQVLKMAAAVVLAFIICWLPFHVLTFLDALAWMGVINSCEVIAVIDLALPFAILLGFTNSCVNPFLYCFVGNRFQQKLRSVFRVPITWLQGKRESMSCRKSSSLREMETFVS
To be noted: experimental models tested; cited from earlier work.

“Asp-Arg-Val-Tyr-Ile-Xaa-Pro-Phe [(p-NH2-Phe)6-AII, reference compound]”: the binding characteristics result is listed as “comparable to AT2 antagonists”.
